According to patent publication US20060069516A1:

How the values were obtained:
Test in all cases: radioreceptor assay, competitive displacement of [125I-DTyr0]-astressin, membranes of transfected COSM6 cells
[1] = biological target: myc-mCRFR2β (I67E) (mouse)
[2] = biological target: myc-mCRFR2β (K92Q) (mouse)
[3] = biological target: myc-mCRFR2β (R112E) (mouse)
[4] = biological target: myc-mCRFR2β (R112W) (mouse)
myc-mCRFR2β (mouse) = biological target: myc-mCRFR2β (mouse)

Question: How did the Ki [1] turn out when astressin (peptide) was run?
Answer: 128 nM

Question: What about the Ki [2] of the same substance?
Answer: 3.1 nM

Question: And the Ki [3]?
Answer: 7.2 nM

Question: And the Ki [4]?
Answer: 1.9 nM

Question: And the Ki (myc-mCRFR2β (mouse))?
Answer: 1.1 nM
